Key:
[1] = tested on: H3K27me3 in WSU-DLCL2 cells; assay: WSU-DLCL2 methylation assay (H3K27me3 ELISA); type: cell-based; conditions: Homo sapiens, WSUDLCL2, 96 hours incubation, H3K27me3 normalised to total H3
Text: WSU-DLCL2 Methylation Assay
WSU-DLCL2 suspension cells were purchased from DSMZ (German Collection of Microorganisms and Cell Cultures, Braunschweig, Germany). RPMI/Glutamax Medium, Penicillin-Streptomycin, Heat Inactivated Fetal Bovine Serum, and D-PBS were purchased from Life Technologies, Grand Island, N.Y., USA. Extraction Buffer and Neutralization Buffer (5×) were purchased from Active Motif, Carlsbad, Calif., USA. Rabbit anti-Histone H3 antibody was purchased from Abcam, Cambridge, Mass., USA. Rabbit anti-H3K27me3 and HRP-conjugated anti-rabbit-IgG were purchased from Cell Signaling Technology, Danvers, Mass., USA. TMB “Super Sensitive” substrate was sourced from BioFX Laboratories, Owings Mills, Md., USA. IgG-free Bovine Serum Albumin was purchased from Jackson ImmunoResearch, West Grove, Pa., USA. PBS with Tween (10×PBST) was purchased from KPL, Gaithersburg, Md., USA. Sulfuric Acid was purchased from Ricca Chemical, Arlington, Tex., USA. Immulon ELISA plates were purchased from Thermo, Rochester, N.Y., USA. V-bottom cell culture plates were purchased from Corning Inc., Corning, N.Y., USA. V-bottom polypropylene plates were purchased from Greiner Bio-One, Monroe, N.C., USA.
WSU-DLCL2 suspension cells were maintained in growth medium (RPMI 1640 supplemented with 10% v/v heat inactivated fetal bovine serum and 100 units/mL penicillin-streptomycin) and cultured at 37° C. under 5% CO2. […]

The chains behind the UniProt entries cited, without tags or fusion partners.
UniProt Q15910, whole entry Y641F: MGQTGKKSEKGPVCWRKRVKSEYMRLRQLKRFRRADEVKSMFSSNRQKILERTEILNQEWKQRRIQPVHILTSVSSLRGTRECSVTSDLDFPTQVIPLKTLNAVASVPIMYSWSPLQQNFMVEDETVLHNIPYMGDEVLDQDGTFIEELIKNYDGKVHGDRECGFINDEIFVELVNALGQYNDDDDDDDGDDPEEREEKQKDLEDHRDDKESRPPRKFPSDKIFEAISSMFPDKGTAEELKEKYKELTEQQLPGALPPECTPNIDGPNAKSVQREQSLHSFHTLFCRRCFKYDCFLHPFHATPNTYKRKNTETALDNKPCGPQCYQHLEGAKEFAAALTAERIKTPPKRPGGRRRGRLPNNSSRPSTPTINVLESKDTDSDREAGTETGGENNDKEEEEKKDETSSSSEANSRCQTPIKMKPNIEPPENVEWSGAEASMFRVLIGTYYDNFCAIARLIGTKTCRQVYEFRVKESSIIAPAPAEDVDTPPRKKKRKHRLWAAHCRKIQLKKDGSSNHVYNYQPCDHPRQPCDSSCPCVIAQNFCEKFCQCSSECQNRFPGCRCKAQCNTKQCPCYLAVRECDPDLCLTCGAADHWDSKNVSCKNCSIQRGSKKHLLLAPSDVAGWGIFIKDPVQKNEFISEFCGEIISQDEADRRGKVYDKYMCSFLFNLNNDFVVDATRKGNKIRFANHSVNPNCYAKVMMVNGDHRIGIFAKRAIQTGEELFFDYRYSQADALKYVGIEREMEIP
UniProt Q15910, whole entry: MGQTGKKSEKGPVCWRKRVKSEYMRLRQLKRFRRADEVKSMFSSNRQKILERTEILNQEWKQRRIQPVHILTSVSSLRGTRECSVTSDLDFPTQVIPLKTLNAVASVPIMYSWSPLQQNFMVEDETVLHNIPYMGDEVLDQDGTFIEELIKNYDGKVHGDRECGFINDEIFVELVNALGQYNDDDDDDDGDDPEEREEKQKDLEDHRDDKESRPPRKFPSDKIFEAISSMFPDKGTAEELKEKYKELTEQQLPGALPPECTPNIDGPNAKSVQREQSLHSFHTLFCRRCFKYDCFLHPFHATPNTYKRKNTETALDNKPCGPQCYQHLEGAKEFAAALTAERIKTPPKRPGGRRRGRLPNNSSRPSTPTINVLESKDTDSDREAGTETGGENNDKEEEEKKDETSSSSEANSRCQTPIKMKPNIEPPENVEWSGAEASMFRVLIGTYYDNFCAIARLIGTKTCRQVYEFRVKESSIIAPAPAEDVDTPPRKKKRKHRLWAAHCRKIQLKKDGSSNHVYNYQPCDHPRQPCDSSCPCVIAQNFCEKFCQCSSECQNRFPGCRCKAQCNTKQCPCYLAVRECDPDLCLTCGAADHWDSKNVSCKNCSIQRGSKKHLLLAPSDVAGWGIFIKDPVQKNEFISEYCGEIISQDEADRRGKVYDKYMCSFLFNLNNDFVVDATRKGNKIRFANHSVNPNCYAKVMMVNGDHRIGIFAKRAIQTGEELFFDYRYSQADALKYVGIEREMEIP

[2] = biological target: EZH2 Y641F mutant (PRC2 enzyme) (Homo sapiens (Human), UniProt Q15910, Y641F); assay: PRC2 enzyme assay on peptide substrate, EZH2 Y641F mutant (H3K27me2 peptide, 3H-SAM Flashplate); type: biochemical; conditions: Y641F mutant PRC2 4 nM
[3] = biological target: wild-type EZH2 (PRC2 enzyme) (Homo sapiens (Human), UniProt Q15910); assay: PRC2 enzyme assay on peptide substrate, wild-type EZH2 (H3K27me0 peptide, 3H-SAM Flashplate); type: biochemical; conditions: wild-type PRC2 4 nM, read-out: WT EZH2 IC50

| Structure (SMILES) | IC50 [1] [µM] | IC50 [2] [µM] | IC50 [3] [µM] |
| --- | --- | --- | --- |
| CCN(c1cc(Cl)cc(C(=O)NCc2c(CCN(C)C)cc3n(c2=O)NCC3)c1C)[C@H]1CC[C@H](N(C)C)CC1 [Compound 1, 5-chloro-3-(((trans)-4-(dimethylamino)cyclohexyl)(ethyl)amino)-N-((5-(2-(dimethylamino)ethyl)-7-oxo-1,2,3,7-tetrahydropyrazolo[1,5-a]pyridin-6-yl)methyl)-2-methylbenzamide] | 0.75 |  |  |
| CCN(c1cc(Cl)cc(C(=O)NCc2c(C)n(CC)[nH]c2=O)c1C)C1CCN(CCOC)CC1 [Compound 75, 5-chloro-3-(ethyl(1-(2-methoxyethyl)piperidin-4-yl)amino)-N-((1-ethyl-5-methyl-3-oxo-2,3-dihydro-1H-pyrazol-4-yl)methyl)-2-methylbenzamide] |  | > 50 | > 50 |

Reference: US10150764B2, “Substituted benzene compounds” (Epizyme, Inc., priority 2013, dated 2018)
